Measurements from patent publication US12310973B2, “Administration and dosage of diaminophenothiazines” (WisTa Laboratories Ltd., priority 2016, dated 2025).

The chains behind the UniProt entries cited, without tags or fusion partners.
UniProt P08183, whole entry: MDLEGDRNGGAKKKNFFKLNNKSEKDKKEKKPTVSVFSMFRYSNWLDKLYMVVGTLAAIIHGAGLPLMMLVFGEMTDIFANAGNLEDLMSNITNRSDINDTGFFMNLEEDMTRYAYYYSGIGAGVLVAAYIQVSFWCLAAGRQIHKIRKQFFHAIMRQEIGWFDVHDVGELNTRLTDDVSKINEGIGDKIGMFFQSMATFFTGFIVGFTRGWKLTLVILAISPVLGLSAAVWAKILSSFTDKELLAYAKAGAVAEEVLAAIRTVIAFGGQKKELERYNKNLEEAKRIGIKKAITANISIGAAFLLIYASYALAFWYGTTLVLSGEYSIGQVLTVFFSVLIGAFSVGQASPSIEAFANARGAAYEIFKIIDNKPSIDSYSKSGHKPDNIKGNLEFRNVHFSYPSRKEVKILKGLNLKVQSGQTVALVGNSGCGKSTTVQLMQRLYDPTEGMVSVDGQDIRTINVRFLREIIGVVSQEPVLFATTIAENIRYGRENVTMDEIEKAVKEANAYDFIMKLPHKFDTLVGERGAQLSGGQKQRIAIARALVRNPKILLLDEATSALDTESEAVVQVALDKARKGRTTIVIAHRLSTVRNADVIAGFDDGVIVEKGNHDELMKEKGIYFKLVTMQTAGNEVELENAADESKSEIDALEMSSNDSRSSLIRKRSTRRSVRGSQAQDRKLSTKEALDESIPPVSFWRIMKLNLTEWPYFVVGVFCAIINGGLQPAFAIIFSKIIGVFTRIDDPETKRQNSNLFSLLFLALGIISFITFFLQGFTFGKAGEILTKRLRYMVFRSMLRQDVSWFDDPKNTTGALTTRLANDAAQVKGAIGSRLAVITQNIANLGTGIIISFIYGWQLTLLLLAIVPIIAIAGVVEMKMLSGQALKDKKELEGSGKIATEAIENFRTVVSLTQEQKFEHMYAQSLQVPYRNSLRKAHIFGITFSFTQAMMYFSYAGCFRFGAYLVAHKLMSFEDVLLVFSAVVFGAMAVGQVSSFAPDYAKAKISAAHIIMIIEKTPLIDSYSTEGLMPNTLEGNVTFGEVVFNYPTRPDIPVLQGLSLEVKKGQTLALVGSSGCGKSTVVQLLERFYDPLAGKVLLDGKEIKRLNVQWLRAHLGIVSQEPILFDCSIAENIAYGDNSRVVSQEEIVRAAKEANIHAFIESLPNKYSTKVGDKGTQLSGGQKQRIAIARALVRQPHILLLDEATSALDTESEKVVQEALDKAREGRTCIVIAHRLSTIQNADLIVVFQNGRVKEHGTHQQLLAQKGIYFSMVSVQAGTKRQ

Biological target: multidrug resistance protein 1 (MDR1) (Homo sapiens, UniProt P08183)
Conditions: unpublished data

Q: How did the “Substrate for MDR1 pathway” value turn out when methylthioninium [MT] was run?
A: pH-dependent substrate
